Target: T1, Human Neutrophil Elastase (Homo sapiens, UniProt P08246)
T1 sequence (P08246 30-267): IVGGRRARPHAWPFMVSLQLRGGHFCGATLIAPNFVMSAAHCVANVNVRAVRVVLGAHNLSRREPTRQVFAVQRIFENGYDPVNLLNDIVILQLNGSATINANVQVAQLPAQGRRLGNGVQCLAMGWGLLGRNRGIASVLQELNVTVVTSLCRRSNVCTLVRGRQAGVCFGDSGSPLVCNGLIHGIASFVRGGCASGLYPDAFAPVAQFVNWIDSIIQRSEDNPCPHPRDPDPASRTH
Experiment: Human neutrophil elastase inhibition assay
Format: biochemical

## CC(C)(C)C(=O)Oc1ccc(S(=O)(=O)Nc2ccccc2C(=O)NCC(=O)O)cc1 [Sivelestat, reference compound]
  IC50: 60 ± 10 nM
